Source: patent US9732093B2, “FLAP modulators” (JANSSEN PHARMACEUTICA NV, priority 2013, dated 2017)

Protein sequences, listed by entry. Tags and fused reporters are not part of them.
UniProt P20292, whole entry: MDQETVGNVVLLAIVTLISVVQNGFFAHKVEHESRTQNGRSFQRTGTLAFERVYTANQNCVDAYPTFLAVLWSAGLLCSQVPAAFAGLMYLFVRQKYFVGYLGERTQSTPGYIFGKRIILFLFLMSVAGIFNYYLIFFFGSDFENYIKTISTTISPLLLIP

How the values were obtained:
human FLAP = human FLAP (Homo sapiens (Human), UniProt P20292); assay: FLAP binding assay (HTRF format); settings: read-out: FLAP Binding wild type HTRF Ki, human FLAP wild type membranes, Table 6 (additional runs)
[1] = system: leukotriene pathway in human whole blood; assay: Human whole blood assay (LTB4 levels after A23187 stimulation); settings: read-out: Human Whole Blood LTB4 IC50 1:1, human whole blood diluted 1:1 in RPMI, Table 6 (additional runs)

Nc1ccnc(Oc2c(C3CCCCC3)ccc(-c3cnc(N)nc3)c2F)n1
Ki (human FLAP): 26.9 nM | IC50 [1]: 91.5 nM
